Results on one compound are retold here after ChEMBL document CHEMBL1132473, “Inhibition and substrate activity of conformationally rigid vigabatrin analogues with gamma-aminobutyric acid aminotransferase” (J Med Chem, 1999).

Chains of the proteins cited; added tags and fusions are not shown. Lines headed by an entry give the natural chain unless they say otherwise; changes in a name come on top.
UniProt P80147: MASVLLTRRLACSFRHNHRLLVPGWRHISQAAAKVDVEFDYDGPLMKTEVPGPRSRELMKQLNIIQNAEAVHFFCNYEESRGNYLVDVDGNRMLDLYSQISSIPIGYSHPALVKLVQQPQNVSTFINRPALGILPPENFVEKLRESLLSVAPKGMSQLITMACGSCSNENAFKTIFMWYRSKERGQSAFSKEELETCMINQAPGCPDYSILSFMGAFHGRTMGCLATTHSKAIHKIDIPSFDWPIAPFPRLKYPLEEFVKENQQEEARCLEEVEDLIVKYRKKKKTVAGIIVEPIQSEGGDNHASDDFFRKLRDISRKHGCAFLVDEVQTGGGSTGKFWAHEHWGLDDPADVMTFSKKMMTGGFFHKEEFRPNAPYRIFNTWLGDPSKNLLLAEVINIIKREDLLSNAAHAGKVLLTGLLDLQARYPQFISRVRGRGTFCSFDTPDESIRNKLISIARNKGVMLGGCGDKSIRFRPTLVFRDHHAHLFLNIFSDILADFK

The test deals with 4-aminobutyrate aminotransferase, mitochondrial (Sus scrofa) (UniProt P80147).

For the compound `NCCCC(=O)O`, the k cat was determined as 0.817 s⁻¹.
